# Test results from patent US7018806B2, “Method for identifying endocrine disruptors and kit for carrying out the same” (priority 2001, dated 2006).
# Protein sequences, listed by entry. Tags and fused reporters are not part of them. Lines headed by an entry give the natural chain unless they say otherwise; changes in a name come on top.
# UniProt P11511: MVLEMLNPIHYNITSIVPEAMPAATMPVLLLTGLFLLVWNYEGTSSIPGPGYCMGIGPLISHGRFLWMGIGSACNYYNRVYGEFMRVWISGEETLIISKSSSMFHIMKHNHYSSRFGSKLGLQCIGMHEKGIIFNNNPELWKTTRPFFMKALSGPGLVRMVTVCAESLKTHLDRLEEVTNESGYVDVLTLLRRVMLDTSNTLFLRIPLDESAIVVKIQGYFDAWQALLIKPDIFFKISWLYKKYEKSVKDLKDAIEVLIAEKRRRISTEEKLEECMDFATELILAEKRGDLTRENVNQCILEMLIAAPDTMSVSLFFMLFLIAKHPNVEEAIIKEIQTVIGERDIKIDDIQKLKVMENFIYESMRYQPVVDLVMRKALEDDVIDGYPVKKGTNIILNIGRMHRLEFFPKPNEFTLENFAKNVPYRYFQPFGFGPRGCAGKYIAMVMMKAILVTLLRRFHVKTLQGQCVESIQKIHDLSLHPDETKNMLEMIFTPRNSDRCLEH
# What was measured:
# [1] = system: E2 production in KGN cells; test: Estradiol (E2) production in cultured KGN cells (RIA); format: cell-based, human; conditions: 20 ng/ml, 7 days
# Method: The media was collected and the E2 content in the media was determined by specific RIA (SRL, Inc. Tokyo, Japan).
# aromatase = biological target: T1, aromatase (Homo sapiens, UniProt P11511); test: Aromatase activity in KGN cells by [3H]H2O release assay; format: cell-based; conditions: 20 ng/ml
# T1 construct: endogenous in cells; host or cells: KGN human ovarian granulosa-like tumor cell line (RIKEN RCB 1154)
# Method: Assaying for inhibition or activation of aromatase activity may be carried out by measuring the amount of [^3H]H2O released upon conversion of [1β-^3H]androstenedione to estrone using a modification of the method of Ackerman et al, J. Clin. Endocrinol. Metab., 53:412–417 (1981), or as described in Example 3 below. Briefly, the cells are plated on a petri dish (Falcon 3001) in culture medium with 10% (v/v) fetal calf serum (FCS). At is confluence, the culture medium is replaced with DMEM/Ham's F-12 containing 5.0–10% (v/v) dextran-coated, charcoal-treated FCS (DCS) (Hyclone, Logan Utah), and incubated for another 12 h in the presence or absence of 10^−5–10^−2 M db-cAMP (Wako Pure Chemical Industries Ltd.) and the test compound. After treatment, the cells are further incubated with 12.5 nM [1β-^3H]androstenedione (NEN Life Science Products, Boston, Mass.; SA, 27.5 Ci/mmol) for 6–12 h. After incubation, the medium (2.0 ml) is transferred to tubes containing 1.0 ml ice-cold 30% (w/v) trichloroacetic acid (TCA), and then centrifuged to remove precipitated protein. The cells are harvested using 0.25% (w/v) trypsin-1.0 mM EDTA to determine the protein concentration. The protocol for the extraction of the medium to measure the amount of [^3H]H2O is performed as described by Tanaka et al, Calcif. Tissue Int., 52:107–109 (1993). Finally, the amount of radioactivity in the [^3H]H2O is corrected by subtracting the blank values from each sample. The cell protein content is determined using a micro bicinichoninic acid kit (Pierce Chemical Co., Rockford, Ill.) after the cells are dissolved in 1.0 N NaOH. The aromatase activity is expressed as picomoles per mg cell protein. As a control, the aromatase activities of human granulosa cells (obtained from in vitro fertilization programs), human fibroblast, and HOS cell (human osteoblast-like cell line) (Tanaka et al, supra) can be measured in the same manner.
# More specifically, aromatase activity was determined by measuring [^3H] H2O release upon conversion of [1β-^3H]androstenedione (A) to estrone (E1), as described by Mu et al, Biochem. Biophys. Res. Commun., 271(3):710–713 (2000). [1β-^3H]androstenedione was purchased from Amersham Pharmacia Biotech (Boston, Mass.).
# The medium (2.0 ml) was extracted with chloroform, and was then centrifuged. The aqueous supernatant was mixed with 5.0% (w/v) charcoal/0.5% (w/v) dextran, and incubated for 30 min. Thereafter, the mixture was centrifuged and the supernatant was added to 5.0 ml of scintillation fluid and assayed for radioactivity. The amount of radioactivity in [^3H]H2O thus measured was standardized based on the protein concentration, which was determined using a micro BCA kit (Pierece Chemical Co., Rockford, Ill.), and expressed as pmol/mg protein/6 h.
# KGN cells = test: Effect on KGN cell growth (cell counting, trypan blue exclusion); format: cell-based, human; conditions: less than 50 ng/ml (2 or 20 ng/ml), 7 days
# Method: TBT and TPT were obtained from the Sigma Chemical Co. (St. Louis, Mo.). Further, both compounds were dissolved in ethanol, and the final concentration of ethanol in the cell growth medium was 0.1% (w/v).
# More specifically, the cells were plated onto a 24-well plate at 1×10^4 cells/well in DMEM/F-12 supplemented with 10% (v/v) FCS. […] After washing, the cells were trypsinized and then counted using a hemocytometer every 48 h for 7 days. Cell viability was assessed by the trypan blue exclusion method.
# [2] = basal or 10^−4 M db-cAMP-stimulated, 7-day period
substance,measurement,setting,value
tributyltin [TBT],E2 concentration in the medium,[1],significant decrease
same,"aromatase activity, % of the baseline","aromatase; 72 h, basal (no db-cAMP)",about 30%
same,time of first significant inhibition of aromatase activity after addition,aromatase; [2],3 days
same,time of maximal inhibition of aromatase activity,aromatase; [2],7 days
same,effect on db-cAMP-induced increase in aromatase activity,aromatase; with 10^−4 M db-cAMP,suppressed
same,effect on KGN cell proliferation,KGN cells,little effect
